Laboratory results: PubChem BioAssay AID540275 (National Center for Advancing Translational Sciences (NCATS), 2011)
This is a selection; strong and weak results do not stand in their true shares. Inconclusive results are not listed. Active and inactive are the calls of the source. Rule as the data show it: active = activation above about 80%; inconclusive = between about 30% and that limit; inactive = weaker than that.

Amino acid sequences for entries named in this document (tags omitted).
UniProt Q8NER1, whole entry, looked up: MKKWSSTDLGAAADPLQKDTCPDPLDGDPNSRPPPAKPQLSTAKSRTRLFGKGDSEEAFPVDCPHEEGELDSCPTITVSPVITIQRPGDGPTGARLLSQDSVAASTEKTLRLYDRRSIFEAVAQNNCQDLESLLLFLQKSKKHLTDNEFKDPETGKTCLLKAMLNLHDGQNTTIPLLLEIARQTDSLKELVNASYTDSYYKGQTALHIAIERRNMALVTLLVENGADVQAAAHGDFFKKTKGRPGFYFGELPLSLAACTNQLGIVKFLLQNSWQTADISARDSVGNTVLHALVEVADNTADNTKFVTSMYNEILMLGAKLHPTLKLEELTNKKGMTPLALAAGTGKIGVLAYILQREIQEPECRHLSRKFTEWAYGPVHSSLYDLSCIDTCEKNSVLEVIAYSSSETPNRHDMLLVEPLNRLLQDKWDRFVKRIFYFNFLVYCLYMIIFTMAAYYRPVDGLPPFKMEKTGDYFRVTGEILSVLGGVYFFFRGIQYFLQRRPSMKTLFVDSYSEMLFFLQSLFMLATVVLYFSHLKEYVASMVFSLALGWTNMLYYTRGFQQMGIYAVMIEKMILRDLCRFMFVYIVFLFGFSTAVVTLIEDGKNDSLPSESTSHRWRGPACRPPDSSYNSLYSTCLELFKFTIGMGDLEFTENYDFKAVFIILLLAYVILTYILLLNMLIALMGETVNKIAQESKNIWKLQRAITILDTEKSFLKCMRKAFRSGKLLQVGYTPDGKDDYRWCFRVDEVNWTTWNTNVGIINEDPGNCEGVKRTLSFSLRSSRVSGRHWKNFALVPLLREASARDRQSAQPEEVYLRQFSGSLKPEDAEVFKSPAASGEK

Biological target: Transient receptor potential cation channel subfamily V member 1 (Homo sapiens) (UniProt Q8NER1)
Assay: HTS Assay for Compounds that Act as Agonists of the Vanilloid Receptor 1; also: 0% is about no effect
Conditions: TRPV1-expressing cells, Fluo-8 calcium influx, agonist mode; at 8.33 µM; active compounds read high
Source text: The transient receptor potential ion channel, family V, number 1, (TRPV1) is one of the most important molecular transducers of painful stimuli and a potential target for analgesic drug development. Although recent clinical trials with orthosteric antagonists have not produced a successful drug because of a hyperthermia side effect and their tendency to block thermal noxious pain, this ion channel is undeniably well placed in the pain pathway, and the idea of blocking pain signals before they enter the CNS is an excellent concept and of proven efficacy when TRPV1 agonists are used. We propose a new approach involving allosteric modulation to impose an activity-dependent constraint within the context of inflammation and tissue damage that would alter the responsiveness of the channel in a way that an orthosteric vanilloid antagonist cannot achieve. We believe that the allosteric modulator approach has not been explored for this target. The main goal of this proposal is to identify additional, new, potent allosteric modulators of TRPV1 that can be used to investigate TRPV1 function. Our recent report provides evidence of proof of concept, but the compounds are just at the edge of utility in terms of potency. […] The question of whether they can be used as analgesic agents is complex, but if suitable compounds are identified then testing for analgesic properties will be conducted. NIH Chemical Genomics Center [NCGC] NIH Molecular Libraries Probe Centers Network [MLPCN] MLPCN Grant: MH089480-1A1 Assay Submitter (PI): Michael Iadarola, National Institute of Dental and Cranofacial Research
Upon TRPV1 activation in TRPV1 cells, the channel opens and extracellular cations flow through the channel into the cytosol. A calcium binding dye (Fluo-8) becomes fluorescent when bound to calcium. This dye is pre-loaded into cells and is used as a marker for calcium influx. The amount of accumulated calcium is precisely quantified using the FDSS kinetic reader and the calcium dye. For the HTS assay, freshly prepared cells are plated at a density of 2000/well in 3 ul medium in 1536-well plates and cultured overnight at 35.5C. Cells will be loaded with 1 ul of the homogeneous calcium dye (ABD Bioquest) at room temperature for 40 to 90 minutes. Plates will be loaded into the FDSS kinetic reader and a 1 sec / cycle for 10 second baseline signal will be measured. Compound library will then be added with a pintool at 23 nl and measured kinetically for 3 minutes. This portion of the read is considered the agonist portion of the screen. Following the 3 minutes of incubation, an on board pipettor will deliver 1 ul of capsaicin for a final concentration equal to the EC20. Signal will be measured kinetically for an additional 2 minutes. This portion of the read is considered the allosteric enhancer portion of the screen. The FDSS reader has a standard filter set capable of measuring calcium bound Fluo-8 (ex=480 and em=520 nm).

Structure (SMILES)	activation
Cc1cc(SC(NC(=O)c2ccccc2)C(Cl)(Cl)Cl)nc(C(C)C)n1 (stereo not given)	inactive: 1.26%
CCCCOc1ccc(C(=O)NCC2(N3CCCCC3)CCCCC2)cc1OC	inactive: 7.26%
CCOC(=O)Nc1ccc([As](=O)(O)O)c(O)c1	inactive: -8.02%
O=P(Nc1ccccn1)(c1cccc2ccccc12)c1cccc2ccccc12	inactive: 10.5%
Cc1cc(SC(NC=O)C(Cl)(Cl)Cl)ncn1 (stereo not given)	inactive: -3.18%
O=[N+]([O-])c1ccc(Nc2ccc(Oc3ccc([N+](=O)[O-])cc3[N+](=O)[O-])cc2)c([N+](=O)[O-])c1	inactive: 0.786%
CCOC(=O)Nc1cccc([As](=O)(O)O)c1	inactive: -4.04%
O=C(Nc1ccncc1[N+](=O)[O-])c1ccc([N+](=O)[O-])cc1[N+](=O)[O-]	inactive: 0.485%
COP1(=S)c2c(C)nn(CCC#N)c2N=C(c2ccc(F)cc2)N1C (stereo not given)	inactive: 12.6%
CCC(C)N(CC(C)C)C(=S)SC(NC(C)=O)C(Cl)(Cl)Cl (stereo not given)	inactive: 2.24%
CCOP(=O)(Nc1cccc2cccnc12)OCC	inactive: 1.19%
O=C(OC1CN2CCC1CC2)c1cccc([N+](=O)[O-])c1 (stereo not given)	inactive: 0.642%
CCOC(=O)c1ccc(NC(=O)C(C)(CCl)SC)cc1 (stereo not given)	inactive: 3.43%
COc1cc(I)ccc1[As](=O)(O)O	inactive: -2.83%
COc1ccc2nc(NP(=O)(c3ccccc3)c3ccccc3)sc2c1	inactive: 23.2%
Cc1cc(=O)[nH]c(N[N+](=O)[O-])n1	inactive: -1.34%
COc1ccc(N/C(=N/P(=O)(N2CCOCC2)N2CCOCC2)N2CCOCC2)cc1	inactive: -1.69%
Cc1ccc(OP(=O)(Nc2ccc([N+](=O)[O-])cn2)Oc2ccc(C)cc2)cc1	inactive: 11.3%
Cc1ccc2nc3c(c(C)c2c1)CC(C(Cl)Cl)S3 (stereo not given)	inactive: 8.36%
COc1cc(C(=O)NCC2(N3CCOCC3)CCCCC2)ccc1OCC(C)C	inactive: 11.6%
C[As](=O)(O)c1cccc(C(=O)O)c1	inactive: 0.719%
O=[As](O)(c1ccc(O)cc1)c1ccccc1O	inactive: -5.14%
O=[N+]([O-])c1cc([N+](=O)[O-])c(-c2ccn[nH]2)s1	inactive: -0.337%
CC(C)NC(=O)NP(=O)(Oc1ccccc1)Oc1ccccc1	inactive: -1.67%
CCN(CC)C(=S)SC(NC=O)C(Cl)(Cl)Cl (stereo not given)	inactive: 1.17%

Structure (SMILES)	activation
ClCCSc1nnc(-c2cccnc2)o1	inactive: -0.692%
CC(C)c1ccc(OP(=O)(Nc2ccccn2)Oc2ccccc2F)cc1 (stereo not given)	inactive: 19.8%
Nc1ccccc1[As](=O)(O)c1ccccc1	inactive: -1.74%
O=C(O)COc1ccc([As](=O)(O)O)cc1[N+](=O)[O-]	inactive: 4.08%
O=P(Nc1nccs1)(Oc1ccccc1)Oc1ccccc1	inactive: -3.36%
O=P(Nc1nccs1)(c1ccccc1)c1nc2ccccc2s1 (stereo not given)	inactive: 0.345%
CCOP1(=S)c2c(C)nn(CCC#N)c2N=C(c2ccccc2F)N1C (stereo not given)	inactive: 6.99%
CCOP1(=S)c2c(C)nn(CCC#N)c2N=C(c2ccc(F)cc2)N1C (stereo not given)	inactive: 12.3%
CN(C(=O)Cc1ccccc1)[C@@H]1CC[C@]2(CCCO2)C[C@H]1N1CCCC1	inactive: -1.64%
N#CCCN(C(=O)COC(=O)C(O)(c1ccccc1)c1ccccc1)c1ccc(F)cc1	inactive: -2.07%
O=[N+]([O-])c1ccc2c(c1)nnn2O	inactive: -0.85%
NC(=O)Nc1ccc([As](=O)(O)O)cc1	inactive: -0.116%
Cc1cccc(OCC(=O)OC2CN3CCC2CC3)c1 (stereo not given)	inactive: -1.19%
O=C(OC1CN2CCC1CC2)c1ccc(Cl)cc1 (stereo not given)	inactive: 3.12%
CS(=O)(=O)c1ccc(Cl)c(NC(=O)COC(=O)C(O)(c2ccccc2)c2ccccc2)c1	inactive: -3.53%
O=[As](O)(O)c1cccnc1	inactive: -2.69%
COc1cc(C(=O)NCC2(N3CCOCC3)CCCCC2)cc(Cl)c1OC(C)C	inactive: 25.4%
CCOP(=O)(Nc1cccc2ccccc12)OCC	inactive: -0.503%
COc1cc(C2NCCC3(OCCO3)C2(C)C)cc(OC)c1OC (stereo not given)	inactive: 4.42%
Cc1ccc(NCCc2c([N+](=O)[O-])cc([N+](=O)[O-])cc2[N+](=O)[O-])cc1	inactive: -1.99%
Nc1cccc2c([As](=O)(O)O)cccc12	inactive: 0.126%
CCCOP(=S)(Nc1nc(N)cc(=O)[nH]1)OCCC	inactive: 2.05%
CC(C)(C)C(=O)NC(Sc1ncccn1)C(Cl)(Cl)Cl (stereo not given)	inactive: 0.728%
Clc1n[nH]nc1-c1nn[nH][15n]1	inactive: 0.538%
O=P1(Nc2ccccn2)COc2ccccc2OC1	inactive: -3.73%
